# In paper PMC7723054:
# This is one part of the list.
# T1: LIN28A (human?, UniProt Q9H9Z2 1-209)
# T1 sequence: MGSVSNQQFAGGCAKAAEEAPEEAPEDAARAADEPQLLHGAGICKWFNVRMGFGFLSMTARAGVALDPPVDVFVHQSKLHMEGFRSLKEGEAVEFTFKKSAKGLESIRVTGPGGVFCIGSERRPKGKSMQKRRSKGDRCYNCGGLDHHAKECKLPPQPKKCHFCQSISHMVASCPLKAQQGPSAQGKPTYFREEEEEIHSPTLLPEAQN
# T2: CIRBP (Homo sapiens, UniProt Q14011 1-172)
# T2 sequence: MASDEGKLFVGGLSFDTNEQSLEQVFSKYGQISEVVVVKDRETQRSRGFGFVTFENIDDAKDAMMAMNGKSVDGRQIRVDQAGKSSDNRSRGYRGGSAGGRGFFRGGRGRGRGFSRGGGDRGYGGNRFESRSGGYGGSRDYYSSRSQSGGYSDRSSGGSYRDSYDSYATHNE
# T3: DHX36 (Homo sapiens, UniProt Q9H2U1 1-1008)
# T3 sequence: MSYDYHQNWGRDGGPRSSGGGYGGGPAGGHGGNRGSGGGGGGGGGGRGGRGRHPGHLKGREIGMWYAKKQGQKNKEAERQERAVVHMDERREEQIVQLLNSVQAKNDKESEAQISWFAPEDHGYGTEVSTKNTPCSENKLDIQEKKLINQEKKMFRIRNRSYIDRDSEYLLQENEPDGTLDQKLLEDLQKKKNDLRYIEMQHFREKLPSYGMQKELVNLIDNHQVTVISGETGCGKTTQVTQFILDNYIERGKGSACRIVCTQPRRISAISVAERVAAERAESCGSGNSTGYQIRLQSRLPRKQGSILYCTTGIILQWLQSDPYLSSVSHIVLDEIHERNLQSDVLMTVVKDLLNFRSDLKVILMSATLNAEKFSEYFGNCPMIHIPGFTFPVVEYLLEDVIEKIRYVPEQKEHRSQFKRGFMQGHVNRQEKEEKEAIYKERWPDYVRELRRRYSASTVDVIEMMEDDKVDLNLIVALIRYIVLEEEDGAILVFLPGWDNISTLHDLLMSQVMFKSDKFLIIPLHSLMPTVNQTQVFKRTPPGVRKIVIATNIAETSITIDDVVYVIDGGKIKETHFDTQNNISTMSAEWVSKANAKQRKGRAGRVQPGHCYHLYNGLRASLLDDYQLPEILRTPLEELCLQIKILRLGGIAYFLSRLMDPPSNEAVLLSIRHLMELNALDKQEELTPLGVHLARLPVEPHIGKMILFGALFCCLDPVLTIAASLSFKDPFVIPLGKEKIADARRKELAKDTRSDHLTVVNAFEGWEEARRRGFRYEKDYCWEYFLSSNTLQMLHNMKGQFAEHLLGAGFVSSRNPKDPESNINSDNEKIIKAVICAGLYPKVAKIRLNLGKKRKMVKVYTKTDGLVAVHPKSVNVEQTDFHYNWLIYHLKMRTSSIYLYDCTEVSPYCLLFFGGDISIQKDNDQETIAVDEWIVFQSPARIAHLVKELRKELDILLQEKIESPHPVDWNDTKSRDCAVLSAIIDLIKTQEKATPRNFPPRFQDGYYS
# B1: hsa-mir-135b (structured_RNA)
# RNA: GGGAAACUGGCGGUAACUAUAGUCACUAGGUGUACGAAGUUUCAGCAUGUGAUUGCUGUCCCAAACUCAUGUGCUGAAGCUUCGUGCAC
# B2: hsa-mir-4683 (structured_RNA)
# RNA: GGGACACUGAACCGUAAGUUAUUCAGAGGGUGUACGAAGUUUCAGCUGCACCAGUUCUGGCCGCUGGUGGAGCUGAAGCUUCGUGCAC
# B3: hsa-mir-409 (structured_RNA)
# RNA: GGGAAGAUUCCAUACAGGAUGUGGGACGGGUGUACGAAGUUUCAGCUUUGCAUCUGGACGACGAAUGCUGAAGCUUCGUGCAC
# B4: hsa-mir-3606 (structured_RNA)
# RNA: GGGAAAGCUUACGCGGAGUGAGCAUAUUGGUGUACGAAGUUUCAGCUUUUAAUUUUUUUAAAAGCUGAAGCUUCGUGCAC
# B5: NEAT1_ParasoR_ID13 (structured_RNA)
# RNA: GGGACAAAUAGGGUGUGAUUGCCGCAAAGGUGUACGAAGUUUCAGCGUAACUCCUAUGGUUACGCUGAAGCUUCGUGCAC
# B6: hsa-mir-548ar (structured_RNA)
# RNA: GGGAAGAAUUAUGCGGGCAUUGCUCUACGGUGUACGAAGUUUCAGCUUUGCUGUUGAACGUAGUGGUAAGCUGAAGCUUCGUGCAC
# B7: NEAT1_ParasoR_ID35 (structured_RNA)
# RNA: GGGAAGAUACGCCGCUACGGAAACAUUUGGUGUACGAAGUUUCAGCGCACCUUUGCUGGUGCGCUGAAGCUUCGUGCAC
# B8: hsa-mir-6513 (structured_RNA)
# RNA: GGGAGUAUCGAAAGGCGGUCAGAAUGCGGGUGUACGAAGUUUCAGCAUGUCUCAGGUCCCCAGCUGAGUCAAGCUGAAGCUUCGUGCAC
# B9: hsa-mir-7702 (structured_RNA)
# RNA: GGGAUCGGUUAGAACAGUAUCGAUUCCGGGUGUACGAAGUUUCAGCCUGAGGACAUGCAGUUUCAGGCUGAAGCUUCGUGCAC
# B10: hsa-mir-188 (structured_RNA)
# RNA: GGGAAUGGAAGAGCCCUCACCACAAAGCGGUGUACGAAGUUUCAGCGGAGGGUGAGCUUUCUGAAAACCCCUCCGCUGAAGCUUCGUGCAC
# B11: hsa-mir-2110 (structured_RNA)
# RNA: GGGAUGCGUGCAGGUUUUCGGUAAAGCAGGUGUACGAAGUUUCAGCAGUGAGGCGUCGGCUGUGUUUCUGCUGAAGCUUCGUGCAC
# B12: hsa-mir-4447 (structured_RNA)
# RNA: GGGAAGAUUAUAGUCAUACGUACCCGAGGGUGUACGAAGUUUCAGCCAUCAUUUGCACUACUGAUACUUGGGGUCAGAUAAUUGUUUGUGGUGGCUGAAGCUUCGUGCAC
# B13: hsa-mir-4465 (structured_RNA)
# RNA: GGGAGUGAGCUCCGCGUAUCUGGAGUUGGGUGUACGAAGUUUCAGCUGAGGUUUACUAUGGAACCUCAGCUGAAGCUUCGUGCAC
# B14: hsa-mir-375 (structured_RNA)
# RNA: GGGAAGAUUCCGUGUUCAUGCCCGCAACGGUGUACGAAGUUUCAGCCAAACCGGACCUGAGCGUUUUGGCUGAAGCUUCGUGCAC
# B15: hsa-mir-8078 (structured_RNA)
# RNA: GGGAAAGACCGGCACGGAACUGGUAAAUGGUGUACGAAGUUUCAGCGGCCUGGGAUUCCUGCCUUCUAGGUCGCUGAAGCUUCGUGCAC
# B16: hsa-mir-5689 (structured_RNA)
# RNA: GGGAACUGGAGUCCCUGGAACUCACUCGGGUGUACGAAGUUUCAGCUAGAUACUCAGGAGGGUGAGUAUCUAGCUGAAGCUUCGUGCAC
# B17: hsa-mir-206 (structured_RNA)
# RNA: GGGACCACCUUGAUUGGUUAACUGCACGGGUGUACGAAGUUUCAGCCCCAUAUGGAUUACUUUGCUAUGGAGCUGAAGCUUCGUGCAC
# B18: hsa-mir-136 (structured_RNA)
# RNA: GGGAAAUACGACGAACACGACAAACGCUGGUGUACGAAGUUUCAGCGAUGGAUUCUUAUGCUCCAUCGCUGAAGCUUCGUGCAC
# B19: hsa-mir-4264 (structured_RNA)
# RNA: GGGAAAUUAGCUUUCGGCAUCUGCAGGCGGUGUACGAAGUUUCAGCCAUUGUAACAUGAUAGUGGCUGAAGCUUCGUGCAC
# B20: hsa-mir-3665 (structured_RNA)
# RNA: GGGAAGAUCGGACGGCUGUGUACCGAAGGGUGUACGAAGUUUCAGCGCGGCCGCGCUGGCCGCUGCUGAAGCUUCGUGCAC
# B21: hsa-mir-3167 (structured_RNA)
# RNA: GGGAAAACGCCACAGGCAACGUGUAUAGGGUGUACGAAGUUUCAGCUUCUUUUUUCUGAAAUUCUUCAGGAAGGAGCUGAAGCUUCGUGCAC
# B22: NEAT1_ParasoR_ID44 (structured_RNA)
# RNA: GGGACCCAACGUGCCCAGGUACAUCAUUGGUGUACGAAGUUUCAGCCCUUUUUCUGGGCUGAAGCUUCGUGCAC
# B23: hsa-mir-548b (structured_RNA)
# RNA: GGGACCGCGCAAUGUGAUAUUUGGCUACGGUGUACGAAGUUUCAGCUUGGCCUUUAUUUUCAAUGGCAAGGCUGAAGCUUCGUGCAC
# B24: hsa-mir-5680 (structured_RNA)
# RNA: GGGAAUUGGCUAUGAGAGAGCAACACAUGGUGUACGAAGUUUCAGCUCCCUUCCUGGACACACAGGAGGAGAGCUGAAGCUUCGUGCAC
# B25: hsa-mir-4781 (structured_RNA)
# RNA: GGGACGAGGUACCAAGCGCCUACUACCUGGUGUACGAAGUUUCAGCUAUUGGGCCAAUUCCCCCAAUGGCUGAAGCUUCGUGCAC
# B26: hsa-mir-1256 (structured_RNA)
# RNA: GGGAACGAACCGCGAUUGCUGCAAACUAGGUGUACGAAGUUUCAGCAGCUGUGAAAGUCCUAGCUGCUGAAGCUUCGUGCAC
# What was measured:
# Assay in all cases: FOREST: bead pull-down of RNA structure library v1, barcode microarray; U1A/LIN28A: 20 mM HEPES pH 7.5, 80 mM KCl, 20 mM NaCl, 10% glycerol, 2 mM DTT, 0.1 ug/uL BSA, 4 C; BG4/CIRBP/DHX36: 10 mM Tris-HCl pH 7.5, 100 mM KCl (or LiCl),; high values mean tight binding
# LIN28A = molecular target: T1, LIN28A
# CIRBP = molecular target: T2, CIRBP
# DHX36 = molecular target: T3, DHX36
Binder,binding signal (LIN28A) [z-score],binding signal (CIRBP) [z-score],binding signal (DHX36) [z-score]
B1,-0.409,-0.438,-0.409
B2,-0.39,-0.469,0.721
B3,-0.4,0.0141,0.662
B4,-0.408,-0.0264,0.696
B5,-0.41,-0.294,0.219
B6,-0.385,-0.757,-0.495
B7,-0.402,-0.629,-0.768
B8,-0.415,-0.891,0.927
B9,-0.416,-0.864,-0.583
B10,-0.424,-0.207,0.366
B11,-0.407,-0.266,-0.279
B12,-0.387,0.935,-0.142
B13,-0.431,-1.26,0.107
B14,-0.424,-0.218,-0.713
B15,-0.432,-0.429,-0.914
B16,-0.433,-1.71,-0.556
B17,-0.417,-0.103,-1.25
B18,-0.384,-1.75,0.0538
B19,-0.434,-0.173,-0.59
B20,-0.403,-0.509,0.368
B21,-0.428,0.588,-0.106
B22,-0.386,-2.14,-0.637
B23,-0.399,-0.53,-0.156
B24,-0.391,-0.0354,0.348
B25,-0.399,-1.2,-0.163
B26,-0.41,0.833,-0.284
